LMNA splice mod – modulators of lamin A splicing; 0.01% of 200,000 active; HeLa LMNA splicing GFP/RFP minigene ratio, 48 h; Potency, µM (series often up to 46.1 µM), without a hit: top-dose ratio change, negative = inhibition, most hits filed as inhibitors; active = well fitted inhibition curve with a large enough effect in the signal ratio, with a control signal flat, not every such curve was filed as active; inconclusive = small, poorly fitted or top-dose-only effect, or effect the other way, or a change in a side signal; the % refers to the signal ratio; also: potency is read from the fitted curve at half-maximal effect; % is scaled to controls: 0 for no effect and ±100 for the full control effect
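S3 HeLa stable clones carrying a lamin A-EGFP splicing minigene plus DsRed2 were seeded at 600 cells/well in Opti-MEM with 2% FBS, pin-dosed and incubated 48 h at 37°C. Acumen cytometry (488 nm) gave the GFP/RFP total-intensity ratio.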
KDM4E inh – inhibitors of human JMJD2E histone demethylase; JMJD2E catalytic domain, FDH-coupled NADH fluorescence (FDH is formaldehyde dehydrogenase); Potency, µM (titrated, usually from 57.1 µM), for the others: at the highest dose activity change, negative = inhibition, usual class: inhibitors; 1.6% of 230,000 active; AID 2147; active = well fitted inhibition curve with a large enough effect, not every such curve was filed as active; inconclusive = small, poorly fitted or top-dose-only effect, or another doubt; inactive = no such curve, though single readings can be large or run the other way;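 also: potency is read from the fitted curve at half-maximal effect; 0% = wells with enzyme and -100% = buffer wells without enzyme; nearly all actives have a fitted effect of over 50% in size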
miR-21 reporter – miR-21 reporter, rising signal. HeLa miR-21 FLuc reporter, luciferase, 48 h. Potency, µM (titrated, usually from 38.3 µM), without a hit: at the top dose reporter change, positive = more light. 340,000 tested, under 10 active. AID 2288; active = well fitted rising curve with a large enough effect; inconclusive = small, poorly fitted or top-dose-only effect; inactive = no such curve, though single readings can be large or run the other way;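 also: % of control where 0% means no effect; miR-21 action dims this reporter so a rising signal means less miR-21 action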
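HeLa miR-21-FLuc reporter line, endogenous miR-21; 2000 cells/well in DMEM/10% FBS; compound titration up to ~40uM final, 48 h, 37 degree Celsius; luciferase detection reagent, 15 min lysis, CCD luminescence.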
G9a inh – inhibitors of human histone lysine methyltransferase G9a | Potency, µM (titrated, usually from 102 µM), without a hit: at the highest dose activity, negative = inhibition, actives largely listed as inhibitors | G9a H3K9 monomethylation, AlphaScreen, 2 h | 8.8% of 350,000 active | Q96KQ7; also: potency is read from the fitted curve at half-maximal effect; % is scaled to controls: 0 for no effect and ±100 for the full control effect; nearly all actives have a fitted effect of over 75% in size
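Step 1: enzyme (final 20 nM) with compound, 15 min RT. Step 2: substrate peptide 500 nM and SAM 20 uM, 2 h RT. Step 3: anti-H3K9me1 antibody and AlphaScreen beads, 10 min, then plate read.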
Sfp PPTase inh – qHTS Assay for Inhibitors of Bacillus subtilis Sfp phosphopantetheinyl transferase (PPTase); 4'-phosphopantetheinyl transferase ffp (Bacillus subtilis), Q9F4F7; Biochemical Sfp PPTase activity, qHTS; Potency, µM, inactives show max response, negative = inhibition, hits mostly inhibitors; 310,000 compounds, 3.5% hits; AID 1490, 2009; active means well fitted inhibition curve with a large enough effect; inconclusive means small, poorly fitted or top-dose-only effect, or another doubt; inactive means no such curve, though single readings can be large or run the other way;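 further: the enzyme is Sfp with the accession as filed and its product quenches rhodamine fluorescence; potency means the concentration at half of the fitted maximal effect; 0% = enzyme reaction without inhibitor and -100% = no enzyme wells; top concentration of the series not given in the record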
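With Hepes-Na pH 7.6 buffer containing 10 mM MgCl2, Sfp (15 nM) modified BHQ-2-YbbR (12.5 uM) using rhodamine-CoA (5 uM). Two reads 30 minutes apart at 525/598 nm yielded each well's rate.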
ALDH1A1 inh – blocks purified human ALDH1A1 activity. 7.3% of 220,000 active. AID 1030. P00352. Potency, µM (series often up to 75.3 µM), for inactives: top-dose activity, negative = inhibition, usual class: inhibitors. Purified ALDH1A1, NADH fluorescence, propionaldehyde substrate; active = well fitted inhibition curve with a large enough effect, not every such curve was filed as active; inconclusive = small, poorly fitted or top-dose-only effect, or another doubt; inactive = no such curve, though single readings can be large or run the other way;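 also: potency is read from the fitted curve at half-maximal effect; plate controls were no enzyme wells and a reference inhibitor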
Starred values were filed as active, the others as inactive; ? = inconclusive; . = not tested or not shown; [ ] = remark or other dose. Hits are enriched below; roughly 13% of the tested compounds scored in any of these assays. Unless noted, calls follow the shape of the dose curve; as a rule, active = well fitted curve in the direction sought with a large enough effect; inconclusive = small, poorly fitted or top-dose-only effect, or another doubt; inactive = no such curve, though single readings can be large; an effect the other way counts as inactive or inconclusive.

#1 O=C1/C(=C/c2ccc(N3CCCC3)cc2)NC(=S)N1C1CC1
#2 Cc1cc(N2CCCC2)ccc1/C=C1\NC(=S)N(C)C1=O
#3 OCC1(Cc2ccccc2F)CCCN(Cc2c(F)ccc(F)c2F)C1 (stereo unspecified)
#4 CCCOP(=O)(c1ccc(N(C)C)cc1)C(Nc1ccccc1)c1ccc(C)cc1 (stereo unspecified)
#5 CCCOP(=O)(c1ccc(N(C)C)cc1)C(O)c1ccc(Br)cc1 (stereo unspecified)
#6 CCCCOP(=O)(c1ccc(N(C)C)cc1)C(O)c1ccncc1 (stereo unspecified)
#7 CC(C)CCOP(=O)(c1ccc(N(C)C)cc1)C(Nc1ccccc1)c1ccc(N(C)C)cc1 (stereo unspecified)
#8 CCOP(=O)(c1ccc(N(C)C)cc1)C(O)c1ccncc1 (stereo unspecified)
Compound | 1 | 2 | 3 | 4 | 5 | 6 | 7 | 8
LMNA splice mod | ? | . | . | . | . | -2.2% | . | .
KDM4E inh | 2.1% | -2.2% | . | -16.0% | . | 22.4µM* | -11.0% | ?
miR-21 reporter | -10.3% | 2.1% | 0.8% | 21.6% | -0.9% | -4.0% | 3.4% | 0.7%
G9a inh | ? | . | 18.7%[0.501 µM] | -2.1% | -2.1% | ? | 14.1µM* | .
Sfp PPTase inh | -4.0% | -14.6% | 30.2% | -3.7% | -1.2% | 6.4% | 13.9% | 16.2%
ALDH1A1 inh | 15.8µM* | 4.47µM* | . | -5.8% | . | -15.0% | ? | .

Entries of single compounds from above.
`OCC1(Cc2ccccc2F)CCCN(Cc2c(F)ccc(F)c2F)C1` (stereo unspecified) as listed: LMNA splice mod = .; KDM4E inh = .; miR-21 reporter = 0.8%; G9a inh = 18.7%[0.501 µM]; Sfp PPTase inh = 30.2%; ALDH1A1 inh = .
`CC(C)CCOP(=O)(c1ccc(N(C)C)cc1)C(Nc1ccccc1)c1ccc(N(C)C)cc1` (stereo unspecified) as listed: LMNA splice mod = .; KDM4E inh = -11.0%; miR-21 reporter = 3.4%; G9a inh = 14.1µM*; Sfp PPTase inh = 13.9%; ALDH1A1 inh = ?

Other structures.
#9 CCCCOP(=O)(c1ccc(N(C)C)cc1)C(O)c1ccc(N(C)C)cc1 (stereo unspecified)
#10 CCCOP(=O)(c1ccc(N(C)C)cc1)C(O)c1ccc(N(C)C)cc1 (stereo unspecified)
#11 O=C(Nc1ccc(F)cc1)c1cc2cc3ccc(Cl)cc3nc2o1
#12 COc1ccccc1CNC(=O)CCNS(=O)(=O)c1ccc2c(c1)CCCC(=O)N2
#13 CN1CCN(CCC(=O)N/N=C/c2cc3c(cc2[N+](=O)[O-])OCO3)CC1
#14 CC(C)COP(=O)(c1ccc(N(C)C)cc1)C(O)c1ccccn1 (stereo unspecified)
#15 CC(C)CCOP(=O)(c1ccc(N(C)C)cc1)C(O)c1ccc(N(C)C)cc1 (stereo unspecified)
#16 CCCCN(C)CCCNC(=O)Cn1ncc2c3ccccc3n(Cc3ccccc3)c2c1=O
Compound | 9 | 10 | 11 | 12 | 13 | 14 | 15 | 16
LMNA splice mod | . | . | . | 4.7%[46 µM] | . | 6.4% | . | .
KDM4E inh | . | . | . | . | . | ? | . | .
miR-21 reporter | -0.2% | -1.8% | -3.6% | 2.1% | -0.2% | -3.1% | 2.9% | -0.6%
G9a inh | 2.24µM* | 0.708µM* | -16.0%[59 µM] | -12.0%[59 µM] | ? | 3.55µM* | 2.24µM* | -30.5%[59 µM]
Sfp PPTase inh | -9.2% | 9.9% | . | . | -5.9% | 79.4µM* | 0.1% | .
ALDH1A1 inh | . | . | . | . | . | ? | . | .

#17 Cn1c(=O)c2c(nc(SCC(=O)O)n2Cc2cc3c(cc2Cl)OCO3)n(C)c1=O
#18 COc1cccc(-c2ncc3ccccc3c2COC(=O)c2ccc(F)cc2)c1
#19 COc1ccccc1CN(C)C(=O)COC(=O)c1cc(C)oc1C
#20 Cc1ccc(NC(=O)CN2CC(C)SC2=NC2CCCCC2)cc1 (stereo unspecified)
#21 Cc1ccc(NC(=O)C2=C(C(=O)O)CCCC2)cc1F
#22 CN1CC=C2C(C#N)=C(N)C(C#N)(C#N)[C@H](c3cccc(Cl)c3)C2C1 (stereo partly specified)
#23 CN1CC=C2C(C#N)=C(N)C(C#N)(C#N)[C@H](c3cccs3)[C@H]2C1
#24 CC(C)c1ccc(C2C3CSCC=C3C(C#N)=C(N)C2(C#N)C#N)cc1 (stereo unspecified)
Compound | 17 | 18 | 19 | 20 | 21 | 22 | 23 | 24
LMNA splice mod | -0.9% | . | . | -6.7% | . | -8.7% | -8.5% | 5.4%
KDM4E inh | ? | . | . | -1.4% | . | ? | ? | ?
miR-21 reporter | 2.1% | . | . | 0.1% | -8.8% | 0.2% | -7.7% | 9.7%
G9a inh | ? | 9.4%[0.501 µM] | 44.7µM* | 50.1µM* | 10.4% | 25.1µM* | ? | -38.8%[59 µM]
Sfp PPTase inh | 56.2µM* | . | . | -22.0% | 8.6% | 0.6% | 7.0% | -5.7%
ALDH1A1 inh | 35.5µM* | . | . | 1.6% | . | ? | ? | 15.8µM*

#25 CN1CC=C2C(C#N)=C(N)C(C#N)(C#N)C(CCc3ccccc3)C2C1 (stereo unspecified)
#26 CCCC1C2CN(C(C)C)CC=C2C(C#N)=C(N)C1(C#N)C#N (stereo unspecified)
#27 O=C(NCCc1ccccc1Cl)c1cc2ccccn2n1
#28 N/N=C1/c2ccccc2N[C@H]1OC(=O)Nc1cccc(Cl)c1
#29 CCN(CC)CCn1c2c(c(SCC(=O)Nc3ccc4c(c3)OCO4)nc1=O)CCC2
#30 CCN(CC)CCCn1c2c(c(SCC(=O)Nc3ccc(C)c(F)c3)nc1=O)CCC2
#31 Cc1cc(C)cc(NC(=O)NCCc2c(C)nn(C)c2C)c1
#32 O=C(c1ccc2c3c(cccc13)CC2)N1CCOCC1
Compound | 25 | 26 | 27 | 28 | 29 | 30 | 31 | 32
LMNA splice mod | -15.0% | -9.5% | . | . | . | . | -27.9%[46 µM] | -2.1%
KDM4E inh | ? | ? | . | . | . | . | . | ?
miR-21 reporter | 0.3% | 0.3% | -39.1% | . | . | . | -13.7% | -9.9%
G9a inh | -5.9%[59 µM] | 39.8µM* | 5.3%[59 µM] | . | 35.5µM* | 56.2µM* | 3.3%[59 µM] | ?
Sfp PPTase inh | 8.3% | -6.1% | . | . | . | . | . | -71.9%
ALDH1A1 inh | ? | ? | . | 23.1%[13.5 µM] | . | . | . | 14.1µM*

#33 Cc1ccc(NC(=S)Nc2cccc3cnccc23)cc1C
#34 CC(=O)c1ccc(NC(=S)Nc2cccc3cnccc23)cc1
#35 Cc1ccc(NC(=S)Nc2cccc3cnccc23)cc1
#36 COc1ccc(NC(=S)Nc2cccc3ccccc23)cc1OC
#37 Cc1c(C(=O)NC(C)c2ccccc2)sc2ncnc(N(C)C3CCCCC3)c12 (stereo unspecified)
#38 Cc1ccc2[nH]c(C(=O)Nc3ccc(F)cc3)cc2c1
#39 Cc1cc(C)c2[nH]c(C(=O)Nc3ccc(F)cc3Br)cc2c1
#40 CCOc1ccccc1C(=O)Oc1c(S(=O)(=O)c2ccc(C)cc2)c(C)nn1-c1ccccc1
Compound | 33 | 34 | 35 | 36 | 37 | 38 | 39 | 40
LMNA splice mod | . | . | . | . | 14.3%[46 µM] | . | . | .
KDM4E inh | 3.1% | 17.8µM* | ? | . | . | . | . | .
miR-21 reporter | -16.2% | ? | -25.6% | -14.9% | 17.9% | -31.4% | -25.8% | 0.9%
G9a inh | -4.4%[12.7 µM] | ? | 35.5µM* | . | 5.8%[59 µM] | 26.8%[0.501 µM] | 50.1µM* | ?
Sfp PPTase inh | 39.8µM* | 2.51µM* | 44.7µM* | -20.7% | . | 21.7% | -15.3% | .
ALDH1A1 inh | 2.51µM* | . | 12.6µM* | . | . | . | . | .

#41 O=c1[nH]nc(N/N=C/c2ccc(Cl)cc2Cl)c(=O)[nH]1
#42 Cc1ccc(N2C(=N)/C(=C3/Nc4ccccc4S3)C(c3ccccc3)C2=O)cc1 (stereo unspecified)
#43 CCn1c(SCc2ccccc2)nnc1-c1nonc1NC(C)=O
#44 CCC(=O)NC(=S)Nc1cccc(NC(=O)c2ccccc2C)c1
#45 Cc1ccc(OCC(=O)NC(=S)Nc2cccc(NC(=O)c3ccccc3Cl)c2)cc1
#46 O=C(COc1ccccc1)NC(=S)Nc1cccc([N+](=O)[O-])c1
#47 O=C(COc1ccccc1)NC(=S)Nc1cccc(NC(=O)c2ccccc2Cl)c1
Compound | 41 | 42 | 43 | 44 | 45 | 46 | 47
LMNA splice mod | . | -20.2% | ? | -9.7%[46 µM] | -10.8% | -15.2% | -2.1%
KDM4E inh | -8.3% | 4.1% | . | 18.4% | 9.9% | -0.4% | -2.1%
miR-21 reporter | 10.3% | -22.3% | 7.0% | -6.9% | -8.9% | -0.1% | -1.6%
G9a inh | ? | 35.5µM* | 9.9%[59 µM] | ? | 8.0%[59 µM] | 15.2% | -10.6%
Sfp PPTase inh | 56.2µM* | -8.7% | . | 7.2% | -10.0% | -16.4% | 16.1%
ALDH1A1 inh | . | 9.46µM* | . | ? | 12.6µM* | ? | 10µM*
